The values that follow are results of earlier work, collected in paper PMC3951241 (Journal of medicinal chemistry, 2013).

Sequences of proteins named here, by UniProt entry; tags and fusion partners are left off. Residues count along the entry.
UniProt P62813, 28-455: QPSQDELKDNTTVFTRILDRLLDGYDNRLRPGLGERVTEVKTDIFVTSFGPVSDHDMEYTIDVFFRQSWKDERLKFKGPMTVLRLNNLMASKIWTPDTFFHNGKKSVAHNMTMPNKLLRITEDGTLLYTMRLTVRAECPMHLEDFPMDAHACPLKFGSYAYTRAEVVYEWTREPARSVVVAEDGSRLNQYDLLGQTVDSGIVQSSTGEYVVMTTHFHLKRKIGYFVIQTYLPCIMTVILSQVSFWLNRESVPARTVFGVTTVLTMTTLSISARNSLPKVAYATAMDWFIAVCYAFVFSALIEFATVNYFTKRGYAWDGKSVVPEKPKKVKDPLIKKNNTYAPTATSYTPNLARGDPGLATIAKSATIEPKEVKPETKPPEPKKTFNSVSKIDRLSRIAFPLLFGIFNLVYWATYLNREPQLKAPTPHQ
UniProt P63138, 26-474: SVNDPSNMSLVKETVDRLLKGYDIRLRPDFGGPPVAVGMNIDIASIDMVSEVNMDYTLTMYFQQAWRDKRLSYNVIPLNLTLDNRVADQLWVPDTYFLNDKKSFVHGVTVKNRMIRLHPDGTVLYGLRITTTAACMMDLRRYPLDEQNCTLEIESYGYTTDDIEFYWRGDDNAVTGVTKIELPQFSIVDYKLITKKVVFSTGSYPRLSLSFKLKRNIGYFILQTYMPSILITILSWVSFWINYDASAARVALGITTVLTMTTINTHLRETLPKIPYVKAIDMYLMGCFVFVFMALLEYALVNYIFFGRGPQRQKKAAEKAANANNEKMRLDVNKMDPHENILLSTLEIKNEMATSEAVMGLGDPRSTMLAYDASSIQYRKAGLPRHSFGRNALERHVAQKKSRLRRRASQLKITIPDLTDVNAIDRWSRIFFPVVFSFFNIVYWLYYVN

The target of the data set is rat α1β2γ2L type GABAA receptors expressed in Xenopus laevis oocytes (Rattus norvegicus, UniProt P62813+P63138). The conditions noted are these: 1 μM compound, 2 μM GABA; literature values ref 15; cited from earlier work.

Consider `C[C@]12CC[C@@H](O)C[C@@H]1CC[C@@H]1[C@@H]2C(=O)C[C@]2(C)/C(=C\C#N)CC[C@@H]12` [compound 4, [3α,5α,17(20)Z]-3-Hydroxy-11-oxopregn-17(20)-ene-21-nitrile], for which the “oocyte electrophysiology 1 μM, ratio of currents in presence/absence of compound” value is listed as 5.06 ± 0.60.
